{"sequences": {"note": "The chains behind the UniProt entries cited, without tags or fusion partners.", "UniProt P27487, whole entry": "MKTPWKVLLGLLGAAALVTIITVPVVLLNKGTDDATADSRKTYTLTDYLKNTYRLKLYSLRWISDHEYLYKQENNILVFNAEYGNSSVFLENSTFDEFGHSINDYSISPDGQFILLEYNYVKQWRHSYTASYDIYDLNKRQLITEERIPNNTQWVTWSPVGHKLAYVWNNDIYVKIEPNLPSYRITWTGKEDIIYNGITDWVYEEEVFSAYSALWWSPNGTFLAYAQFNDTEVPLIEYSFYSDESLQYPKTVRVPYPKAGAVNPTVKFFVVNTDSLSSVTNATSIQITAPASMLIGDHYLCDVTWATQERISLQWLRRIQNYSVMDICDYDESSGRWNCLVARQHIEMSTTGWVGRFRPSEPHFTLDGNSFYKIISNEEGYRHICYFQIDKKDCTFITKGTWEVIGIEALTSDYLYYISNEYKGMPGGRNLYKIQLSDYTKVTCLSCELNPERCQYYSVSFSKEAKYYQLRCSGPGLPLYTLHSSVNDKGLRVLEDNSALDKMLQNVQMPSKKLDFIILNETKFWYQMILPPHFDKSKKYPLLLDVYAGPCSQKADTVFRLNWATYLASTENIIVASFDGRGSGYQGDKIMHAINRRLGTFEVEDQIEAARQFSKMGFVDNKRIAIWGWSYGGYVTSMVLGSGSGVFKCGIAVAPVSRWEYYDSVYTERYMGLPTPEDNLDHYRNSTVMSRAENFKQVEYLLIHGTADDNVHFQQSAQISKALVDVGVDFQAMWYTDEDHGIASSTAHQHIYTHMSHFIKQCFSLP"}, "source": "ChEMBL document CHEMBL1137403", "about": "“Discovery of 2-[4-{{2-(2S,5R)-2-cyano-5-ethynyl-1-pyrrolidinyl]-2-oxoethyl]amino]- 4-methyl-1-piperidinyl]-4-pyridinecarboxylic acid (ABT-279): a very potent, selective, effective, and well-tolerated inhibitor of dipeptidyl peptidase-IV, useful for the treatment of diabetes” (J Med Chem, 2006)", "target": "Dipeptidyl peptidase 4 (Homo sapiens, UniProt P27487)", "data": [{"smiles": "CCC(C)[C@H](N)C(=O)N1[C@H](C#N)CC[C@H]1c1ccccc1", "note": "(stereo partly specified)", "values": [{"measurement": "Ki", "result": "> 30", "unit": "µM"}]}]}
